# Measured values: patent publication US20190175744A1, “INSULIN-INCRETIN CONJUGATES” (Merck Sharp & Dohme Corp., priority 2016, published 2019)
# Protein sequences, listed by entry. Tags and fused reporters are not part of them. Residues count along the entry.
# UniProt P47871, 26-477: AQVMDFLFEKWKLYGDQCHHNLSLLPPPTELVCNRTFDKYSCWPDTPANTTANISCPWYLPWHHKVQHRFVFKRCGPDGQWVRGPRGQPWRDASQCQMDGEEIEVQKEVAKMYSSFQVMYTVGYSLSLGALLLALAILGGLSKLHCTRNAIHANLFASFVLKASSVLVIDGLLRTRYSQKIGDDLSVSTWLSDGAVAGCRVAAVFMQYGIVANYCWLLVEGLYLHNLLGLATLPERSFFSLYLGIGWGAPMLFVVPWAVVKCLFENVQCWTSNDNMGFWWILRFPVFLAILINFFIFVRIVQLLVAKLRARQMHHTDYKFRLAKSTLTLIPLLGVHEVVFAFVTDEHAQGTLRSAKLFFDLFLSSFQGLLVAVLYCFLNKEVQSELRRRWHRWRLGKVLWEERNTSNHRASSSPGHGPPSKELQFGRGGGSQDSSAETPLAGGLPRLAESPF
# UniProt P43220, 24-463: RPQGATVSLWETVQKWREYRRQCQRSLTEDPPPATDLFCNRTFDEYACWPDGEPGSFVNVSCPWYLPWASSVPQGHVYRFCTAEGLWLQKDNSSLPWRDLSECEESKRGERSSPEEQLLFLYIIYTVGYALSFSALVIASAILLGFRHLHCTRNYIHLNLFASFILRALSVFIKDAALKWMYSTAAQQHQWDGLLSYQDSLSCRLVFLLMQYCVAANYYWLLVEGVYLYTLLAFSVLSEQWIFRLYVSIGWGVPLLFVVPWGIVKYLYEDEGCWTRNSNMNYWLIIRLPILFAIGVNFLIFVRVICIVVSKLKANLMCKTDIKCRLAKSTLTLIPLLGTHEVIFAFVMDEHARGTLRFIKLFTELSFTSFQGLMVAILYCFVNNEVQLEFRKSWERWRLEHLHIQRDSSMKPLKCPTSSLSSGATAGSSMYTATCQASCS
# Legend:
# human GCGR = biological target: T1, human GCGR (Homo sapiens, UniProt P47871); test: cAMP activity assay, cells expressing human GCGR; format: cell-based; conditions: for GCGR/GLP1R ratio: Table 5, ratio of hGCGR EC50 to hGLP1R EC50;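 as to all read-outs here: cAMP production read by luminescence after one hour of peptide exposure at room temperature, EC50 from logistic curve fit, native glucagon and GLP-1 as control peptides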
# T1 construct: expressed in transfected cells; grown with Blasticidin and Hygromycin
# human GLP1R = human GLP1R (Homo sapiens, UniProt P43220); test: cAMP activity assay, cells expressing human GLP1R; format: cell-based
Compound,EC50 (human GCGR),GCGR/GLP1R ratio (human GCGR),EC50 (human GLP1R),EC50 (human GLP1R; read-out: Incretin Receptor Assay (cAMP) EC50 GLP1R (Human))
CCCCCCCCCCCCCCCC(=O)N[C@@H](CCC(=O)N[C@@H](CCC(=O)NCCCC[C@H](NC(=O)[C@H](CC(=O)O)NC(=O)[C@H](CO)NC(=O)[C@@H](NC(=O)[C@H](Cc1ccccc1)NC(=O)[C@@H](NC(=O)CNC(=O)[C@H](CCC(N)=O)NC(=O)C(C)(C)NC(=O)[C@@H](N)Cc1c[nH]cn1)[C@@H](C)O)[C@@H](C)O)C(=O)N[C@@H](CO)C(=O)N[C@@H](CCCCN)C(=O)N[C@@H](Cc1ccc(O)cc1)C(=O)N[C@@H](CC(C)C)C(=O)N[C@@H](CC(=O)O)C(=O)NC(C)(C)C(=O)N[C@@H](CCCNC(=N)N)C(=O)N[C@@H](C)C(=O)N[C@@H](C)C(=O)N[C@@H](CCC(N)=O)C(=O)N[C@@H](CC(=O)O)C(=O)N[C@@H](Cc1ccccc1)C(=O)N[C@H](C(=O)N[C@@H](CCC(N)=O)C(=O)N[C@@H](Cc1c[nH]c2ccccc12)C(=O)N[C@@H](CC(C)C)C(=O)N[C@@H](CC(C)C)C(=O)N[C@@H](CC(=O)O)C(=O)N[C@H](C(=O)N[C@@H](CCCCN)C(=O)N[C@@H](CCCCNC(=O)COCCOCCNC(=O)COCCOCCNC(=O)CCCCN=[N+]=[N-])C(N)=O)[C@@H](C)O)C(C)C)C(=O)O)C(=O)O [PEP21],80 pM,1.1,70 pM,–
CC(C)C[C@H](NC(=O)[C@H](Cc1ccc(O)cc1)NC(=O)[C@H](CCCCN)NC(=O)[C@H](CO)NC(=O)[C@H](Cc1ccc(O)cc1)NC(=O)[C@H](CC(=O)O)NC(=O)[C@H](CO)NC(=O)[C@@H](NC(=O)[C@H](Cc1ccccc1)NC(=O)[C@@H](NC(=O)CNC(=O)[C@H](CCC(N)=O)NC(=O)[C@@H](CO)NC(=O)[C@@H](N)Cc1c[nH]cn1)[C@@H](C)O)[C@@H](C)O)C(=O)N[C@@H](CC(=O)O)C(=O)N[C@@H](CCC(=O)O)C(=O)N[C@@H](CCCNC(=N)N)C(=O)N[C@@H](C)C(=O)N[C@@H](C)C(=O)N[C@@H](CCC(N)=O)C(=O)N[C@@H](CC(=O)O)C(=O)N[C@@H](Cc1ccccc1)C(=O)N[C@H](C(=O)N[C@@H](CCCCNC(=O)COCCOCCNC(=O)COCCOCCNC(=O)CC[C@H](NC(=O)CCCCCCCCCCCCCCCN=[N+]=[N-])C(=O)O)C(=O)N[C@@H](Cc1c[nH]c2ccccc12)C(=O)N[C@@H](CC(C)C)C(=O)N[C@@H](CC(C)C)C(=O)N[C@@H](CC(=O)O)C(=O)N[C@H](C(N)=O)[C@@H](C)O)C(C)C [PEP25],40 pM,0.8,50 pM,–
CCCCCCCCCCCCCCCC(=O)N[C@@H](CCC(=O)N[C@@H](CCC(=O)NCCCC[C@H](NC(=O)[C@H](CC(=O)O)NC(=O)[C@H](CO)NC(=O)[C@@H](NC(=O)[C@H](Cc1ccccc1)NC(=O)[C@@H](NC(=O)CNC(=O)[C@H](CCC(N)=O)NC(=O)[C@@H](CO)NC(=O)[C@@H](N)Cc1c[nH]cn1)[C@@H](C)O)[C@@H](C)O)C(=O)N[C@@H](CO)C(=O)N[C@@H](CCCCN)C(=O)N[C@@H](Cc1ccc(O)cc1)C(=O)N[C@@H](CC(C)C)C(=O)N[C@@H](CC(=O)O)C(=O)N[C@@H](CCC(=O)O)C(=O)N[C@@H](CCCNC(=N)N)C(=O)N[C@@H](C)C(=O)N[C@@H](C)C(=O)N[C@@H](CCC(N)=O)C(=O)N[C@@H](CC(=O)O)C(=O)N[C@@H](Cc1ccccc1)C(=O)N[C@H](C(=O)N[C@@H](CCCCN=[N+]=[N-])C(=O)N[C@@H](Cc1c[nH]c2ccccc12)C(=O)N[C@@H](CC(C)C)C(=O)N[C@@H](CC(C)C)C(=O)N[C@@H](CC(=O)O)C(=O)N[C@H](C(N)=O)[C@@H](C)O)C(C)C)C(=O)O)C(=O)O [PEP74],–,–,50 pM,50 pM

# Like-named read-outs stand apart in the source and are kept apart here.
